Measurements reported in US10829561B2, “Antibodies targeting quiescin sulfhydryl oxidase (QSOX1) and uses of same” (Yeda Research and Development Co. Ltd., priority 2015, dated 2020).
Numbering of substitutions follows the chain as printed. Entries after “also recorded” stand apart in the source; their conditions may differ. Blank lines part the entries; values can stand above or below the molecule they belong to.

How the values were obtained:
[1] = biological target: T1, HsQSOX1 (Homo sapiens, UniProt O00391); settings: previously measured, Grossman I. et al. (2013); read-out: Inhibition constant (Ki), HsQSOX1, previously measured; cited from earlier work
T1 construct: made in house
T1 sequence (O00391 33-546 limits assumed): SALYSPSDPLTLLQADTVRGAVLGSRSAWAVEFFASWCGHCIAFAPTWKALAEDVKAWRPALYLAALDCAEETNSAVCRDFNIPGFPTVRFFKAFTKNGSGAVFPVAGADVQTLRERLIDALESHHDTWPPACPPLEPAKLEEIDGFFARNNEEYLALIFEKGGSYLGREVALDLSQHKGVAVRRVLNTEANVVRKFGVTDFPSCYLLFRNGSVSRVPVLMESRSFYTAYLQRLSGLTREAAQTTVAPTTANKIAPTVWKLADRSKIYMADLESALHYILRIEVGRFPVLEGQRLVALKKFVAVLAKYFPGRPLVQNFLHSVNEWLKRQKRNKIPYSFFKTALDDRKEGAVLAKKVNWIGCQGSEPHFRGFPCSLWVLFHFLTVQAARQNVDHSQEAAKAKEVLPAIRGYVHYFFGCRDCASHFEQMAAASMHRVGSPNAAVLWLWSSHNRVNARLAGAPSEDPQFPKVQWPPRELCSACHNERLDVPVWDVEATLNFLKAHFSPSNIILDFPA

[2] = biological target: T2, MmQSOX1 (Mus musculus, UniProt Q8BND5); assay: Colorimetric assay of RNase A oxidation; type: biochemical; settings: 150 or 25 nM MmQSOX1; free thiols, absorbance at 412 nm
T2 construct: Recombinant MmQSOX1 is truncated at the carboxy-terminus and so migrates faster than endogenous secreted MmQSOX1; made in house
T2 sequence (Q8BND5 36-550 limits assumed): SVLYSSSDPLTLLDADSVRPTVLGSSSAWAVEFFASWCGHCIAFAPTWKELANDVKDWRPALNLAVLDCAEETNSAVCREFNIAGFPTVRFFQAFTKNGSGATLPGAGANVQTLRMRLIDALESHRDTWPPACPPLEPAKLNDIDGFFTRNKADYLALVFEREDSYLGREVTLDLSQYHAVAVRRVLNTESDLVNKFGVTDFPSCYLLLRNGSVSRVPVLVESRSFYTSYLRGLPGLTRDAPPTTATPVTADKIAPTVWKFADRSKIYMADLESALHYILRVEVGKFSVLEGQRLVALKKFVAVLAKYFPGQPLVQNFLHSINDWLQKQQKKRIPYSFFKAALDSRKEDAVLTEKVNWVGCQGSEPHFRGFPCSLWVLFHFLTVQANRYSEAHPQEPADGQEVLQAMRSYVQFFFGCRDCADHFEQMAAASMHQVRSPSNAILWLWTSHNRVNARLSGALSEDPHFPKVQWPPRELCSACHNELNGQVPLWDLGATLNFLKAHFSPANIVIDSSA
Procedure: Colorimetric assays of RNase A oxidation were performed as described previously to obtain IC50 values [Grossman I. et al. (2013), supra]. Ki values were obtained in oxygen consumption assays as previously described [Grossman I. et al. (2013), supra].
MmQSOX1 inhibition by MAb492gen was next quantified and compared to inhibition by the natural antibody MAb316.1. In one assay, MmQSOX1 activity was measured by the number of free thiols remaining at the end of the oxidation reaction of denatured and reduced RNase A. Various MAb492gen concentrations were scanned against two MmQSOX1 concentrations. […] In a second assay MmQSOX1 catalytic activity on DTT was measured using the oxygen consumption assay, providing data that were fitted to a model of tight-binding inhibition [Bieth, J. G. (1995) Methods Enzymol.

[3] = biological target: T3, full-length MmQSOX1 (Mus musculus, UniProt Q8BND5); assay: Analytical size-exclusion chromatography of antibody-antigen complexes; type: binding; settings: Superdex 200, PBS
T3 construct: Recombinant MmQSOX1 is truncated at the carboxy-terminus and so migrates faster than endogenous secreted MmQSOX1; made in house
T3 sequence (Q8BND5 36-550 limits assumed): T2 sequence (Q8BND5 36-550 limits assumed)
Procedure: (§1) MsQSOX1, its fragments, MAb316.1, or MAb947.3 were loaded onto a Superdex 200 column (GE HealthCare) equilibrated with phosphate buffered saline (PBS) at a flow rate of 0.8 mL/min. MsQSOX1-antibody complexes were injected after a 30 min co-incubation at 4° C. Elution of proteins was monitored by absorbance at 280 nm.
(§2) MAb492.1 and MAb492gen bind the N-terminal QSOX1 Trx domain. Since MAb316.1 was generated in mice injected with full-length MmQSOX1, inventors sought to localize its epitope. Size exclusion chromatography was used to compare the elution profiles of MmQSOX1, or each of its constituent modules, to their elution profiles when mixed with MAb316.1. […] In contrast, migration of the MmQSOX1 Erv module, responsible for the sulfihydryl oxidase activity, was not affected, pointing at the Trx module as the MAb316.1 binding region in MmQSOX1.

[4] = biological target: T4, MmQSOX1 Trx module (Mus musculus, UniProt Q8BND5); assay: as above; type: binding; settings: Superdex 200, PBS
T4 construct: MmQSOX1Trx and MmQSOX1Erv span residues 36-275 and 289-550, respectively, of Mus musculus QSOX1; made in house; host or cells: E. coli BL21 (DE3)
T4 sequence (Q8BND5 36-275): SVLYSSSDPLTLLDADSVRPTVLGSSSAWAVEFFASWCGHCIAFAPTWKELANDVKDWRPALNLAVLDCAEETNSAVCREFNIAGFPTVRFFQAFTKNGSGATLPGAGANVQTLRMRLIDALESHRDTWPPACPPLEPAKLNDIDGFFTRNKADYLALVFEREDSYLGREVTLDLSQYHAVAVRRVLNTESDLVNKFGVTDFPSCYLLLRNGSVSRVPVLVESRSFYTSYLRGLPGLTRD
Procedure: as §1, §2

B1: MAb492.1: previously published inhibitory monoclonal antibody blocking the Trx CXXC redox-active site of human QSOX1 (antibody, V domains shown)
VL: DVVMTQTHKFMSTSVGDRVSITCKASQDVSTAVAWYQQKSGQSPKLLIHSASYRYTGVPDRFTGSGSGTDFTFTISSVQAEDLAVYYCQQHYSIPLTFGAGTKLELK
VH: QVQLKQSGPGLVAPSQSLSITCTVSGFSLTGYGVNWVRQSPGKGLEWLGMIWGDGRTDYKSALKSRLSITKDNSKSQVFLKMNSLQTDDTARYFCASDYYGSGSFAYWGQGTLVTVSA
Ki [1]: 900 ± 100 pM

IC50, RNase A oxidation [2]: close to the MmQSOX1 concentration
B2: MAb492gen: recombinant full-length antibody based on scFv492gen, CDRs SEQ ID NOs: 46-51, cross-reactive to human and mouse QSOX1 (antibody, V domains shown)
VL: B1 VL with T31G, H49S, S50M, Y53Q, S93A
VH: B1 VH with G33S, N35I, D58E, Y99S, Y100M, G101D, S102P

Elution shift of full-length MmQSOX1 when mixed with antibody [3]: shifted the elution
B3: MAb316.1: murine IgG1 monoclonal antibody targeting MmQSOX1, variable regions SEQ ID NOs: 9 and 10, CDRs SEQ ID NOs: 26-31 (antibody, V domains shown)
VL: QIVLTQSPAIMSASPGEKVTISCSASSSVSYMYWYHQKPGSSPKPWIYRTSNLASGVPARFSGSGSGTSYSLTISSMEAEDAATYYCQQYHSYPLTFGAGTKLELK
VH: QVQLQQSGPELVKPGASVKISCKASGYSFTSYYIHWVKQRPGQGLEWIGWIYPGSYNTEYSEKFKGKATLTADTSSSTAYMQLSSLTSEDSAVYYCARSEDWFAYWGQGTLVTVS
modifications: MAb316.1 variable region - light chain; MAb316.1 variable region - heavy chain
Elution shift / binding of MmQSOX1 Trx module [4]: shifted the elution; also recorded: binds the Trx module
